Results on two molecules are retold here after PubChem BioAssay AID1745845 (National Center for Advancing Translational Sciences (NCATS), 2022).

Molecules are shown by their SMILES. The entries are a selection whose mix differs from that of the whole data set. Records with an inconclusive call do not appear. Activity calls are given as the source filed them. Calls come from the whole dose curve; as a rule, active = well fitted inhibition curve with a large enough effect; inconclusive = small, poorly fitted or top-dose-only effect; inactive = no such curve, though single readings can be large or run the other way.

The nature of the test: Primary qHTS for Inhibitors of ATXN expression. Note: nearly all actives have a fitted effect of over 55% in size. The following applies: HEK-293 ATXN2-luciferase reporter, luminescence, 24 h.
% is set by controls: 0 for no effect and ±100 for the full control effect.

Regarding `CCC(=O)N(c1ccccc1)C1(COC)CCN(CCn2nnn(CC)c2=O)CC1`, the activity change, negative = inhibition (at 57 µM (top of the series)) was inactive: 4.99% and the activity change, negative = inhibition (at 116 µM (top of the series)) is inactive: 32.4%.

On to `CCC(=O)N(c1ccccc1)C1(COC)CCN(CCc2cccs2)CC1`, for which the activity change, negative = inhibition runs as follows: (at 57 µM (top of the series)) inactive: -12%; (at 116 µM (top of the series)) inactive: 4.18%.
